Test results as given in US7473788B2, “Analogs of terpene trilactones from Ginkgo biloba and related compounds and uses thereof” (The Trustees of Columbia University in the City of New York, priority 2002, dated 2009).

By UniProt entry, the sequences of proteins in these tests, tags left out. Where a name states a change or a piece, a line headed by the entry shows the natural chain unless it says otherwise.
UniProt P21556: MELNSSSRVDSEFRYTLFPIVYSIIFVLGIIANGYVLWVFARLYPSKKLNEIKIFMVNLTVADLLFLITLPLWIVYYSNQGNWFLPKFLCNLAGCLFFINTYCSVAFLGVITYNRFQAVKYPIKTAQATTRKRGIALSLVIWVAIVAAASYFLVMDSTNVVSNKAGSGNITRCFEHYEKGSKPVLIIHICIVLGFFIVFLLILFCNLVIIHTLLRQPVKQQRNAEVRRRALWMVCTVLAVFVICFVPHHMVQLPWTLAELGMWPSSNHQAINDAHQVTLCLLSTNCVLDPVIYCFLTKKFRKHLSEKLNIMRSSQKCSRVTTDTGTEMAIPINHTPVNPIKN

What was measured:
PAFR [1] = target: T1, PAFR (Cavia porcellus, UniProt P21556); test: Radioligand binding assay, [^3H]-WEB 2086 displacement, membrane fractions of PAFR-Tg mice (compounds 1-15); conditions: Inhibition of [^3H]-WEB 2086 binding; cloned PAFR; Cheng-Prusoff from IC50
PAFR [2] = target: T1, PAFR; test: Radioligand binding assay, [^3H]-WEB 2086 displacement, membrane fractions of PAFR-Transgenic mice (compounds 16-31); conditions: Inhibition of [^3H]-WEB 2086 binding, means of two independent experiments performed in triplicate

Row | Compound | Ki (PAFR [1]) [nM] | Ki (PAFR [2]) [nM] | Ki (PAFR [2]; listed as 7α-F-GB (21)) [nM]
1 | CC1C(=O)OC2C(O)C34C5OC(=O)C3(OC3OC(=O)C(OCc6ccc(C(=O)c7ccccc7)cc6)C34C(C(C)(C)C)C5O)C12O (centres unmarked) | 580 | – | –
2 | CC1C(=O)OC2C(O)C34C5OC(=O)C3(OC3OC(=O)C(OCc6ccc(C7(C(F)(F)F)N=N7)cc6)C34C(C(C)(C)C)C5O)C12O (centres unmarked) | 470 | – | –
3 | CC1C(=O)OC2C(O)C34C5CC(C(C)(C)C)C36C(OC(=O)C6OCCF)OC4(C(=O)O5)C12O (centres unmarked) | 4870 | – | –
4 | CC1C(=O)OC2C(O)C34C5OC(=O)C3(OC3OC(=O)C(O)C34C(C(C)(C)C)C5N)C12O (centres unmarked) | – | 8640 | –
5 | CC1C(=O)OC2C(O)C34C5OC(=O)C3(OC3OC(=O)C(O)C34C(C(C)(C)C)C5Cl)C12O (stereo not drawn) [7α-Cl-GB (22), 7α-Chloro Ginkgolide B] | – | 110 | –
6 | CC1C(=O)OC2C(O)C34C5OC(=O)C3(OC3OC(=O)C(O)C34C(C(C)(C)C)C5F)C12O (centres unmarked) [Compound 13, 7-Fluoro ginkgolide B] | 990 | – | 990
7 | CC1C(=O)OC2C(O)C34C5CC(C(C)(C)C)C36C(OC(=O)C6OCc3ccc(C(=O)c6ccccc6)cc3)OC4(C(=O)O5)C12O (centres unmarked) | 150 | – | –
